Measurements: patent US20100062067A1, “COMPOSITIONS COMPRISING MACROMOLECULAR ASSEMBLIES OF LIPID AND SURFACTANT” (MALVERN COSMECEUTICS LIMITED, priority 2006, published 2010)

Assay: Clarity and turbidity of surfactant/active agent mixtures in water (Comparative Example 2)
Format: physicochemical

Lyso-phosphatidyl choline [S LPC]
Ability to solubilise TECA: none
